Target: Matrix metalloproteinase-9 (Homo sapiens, UniProt P14780)
Experiment: Inhibition of human matrix metalloprotease-9

Amino acid sequences for entries named in this document (tags omitted). A change or cut given only in a name is not applied to a line headed by its entry.
UniProt P14780: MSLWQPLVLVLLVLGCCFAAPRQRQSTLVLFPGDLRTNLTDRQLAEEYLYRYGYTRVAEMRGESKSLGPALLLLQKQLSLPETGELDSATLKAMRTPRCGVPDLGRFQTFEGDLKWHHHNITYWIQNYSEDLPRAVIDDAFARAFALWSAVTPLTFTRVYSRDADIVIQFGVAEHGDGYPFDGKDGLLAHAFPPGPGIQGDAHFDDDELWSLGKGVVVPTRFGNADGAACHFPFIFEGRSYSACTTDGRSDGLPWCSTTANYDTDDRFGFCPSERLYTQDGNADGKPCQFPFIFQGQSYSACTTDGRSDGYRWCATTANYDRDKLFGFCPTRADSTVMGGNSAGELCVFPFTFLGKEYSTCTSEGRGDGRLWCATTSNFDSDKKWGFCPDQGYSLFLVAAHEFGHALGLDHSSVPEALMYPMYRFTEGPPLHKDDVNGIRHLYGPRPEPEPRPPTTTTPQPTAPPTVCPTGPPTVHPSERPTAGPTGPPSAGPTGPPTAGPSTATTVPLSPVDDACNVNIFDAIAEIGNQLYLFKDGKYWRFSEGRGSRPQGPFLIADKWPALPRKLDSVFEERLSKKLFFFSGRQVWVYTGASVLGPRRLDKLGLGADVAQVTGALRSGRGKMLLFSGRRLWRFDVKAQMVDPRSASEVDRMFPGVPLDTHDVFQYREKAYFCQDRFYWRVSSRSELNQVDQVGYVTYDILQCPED

Work on COc1ccc(S(=O)(=O)N(Cc2ccccc2)c2c(C)cccc2C(=O)NO)cc1 yielded a Ki of 23 nM.
